# In PubChem BioAssay AID631 (The Scripps Research Institute Molecular Screening Center, 2007):
# The chains behind the UniProt entries cited, without tags or fusion partners. Residues count along the entry.
# UniProt P37231, 232-505 limits assumed: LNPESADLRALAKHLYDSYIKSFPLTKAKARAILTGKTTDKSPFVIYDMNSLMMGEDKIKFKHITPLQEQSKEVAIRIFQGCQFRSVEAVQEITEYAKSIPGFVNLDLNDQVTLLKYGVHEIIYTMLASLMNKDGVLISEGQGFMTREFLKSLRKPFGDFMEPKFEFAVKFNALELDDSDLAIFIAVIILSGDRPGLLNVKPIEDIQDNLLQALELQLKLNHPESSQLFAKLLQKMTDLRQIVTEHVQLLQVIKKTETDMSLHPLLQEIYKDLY
# UniProt Q15788, whole entry partner: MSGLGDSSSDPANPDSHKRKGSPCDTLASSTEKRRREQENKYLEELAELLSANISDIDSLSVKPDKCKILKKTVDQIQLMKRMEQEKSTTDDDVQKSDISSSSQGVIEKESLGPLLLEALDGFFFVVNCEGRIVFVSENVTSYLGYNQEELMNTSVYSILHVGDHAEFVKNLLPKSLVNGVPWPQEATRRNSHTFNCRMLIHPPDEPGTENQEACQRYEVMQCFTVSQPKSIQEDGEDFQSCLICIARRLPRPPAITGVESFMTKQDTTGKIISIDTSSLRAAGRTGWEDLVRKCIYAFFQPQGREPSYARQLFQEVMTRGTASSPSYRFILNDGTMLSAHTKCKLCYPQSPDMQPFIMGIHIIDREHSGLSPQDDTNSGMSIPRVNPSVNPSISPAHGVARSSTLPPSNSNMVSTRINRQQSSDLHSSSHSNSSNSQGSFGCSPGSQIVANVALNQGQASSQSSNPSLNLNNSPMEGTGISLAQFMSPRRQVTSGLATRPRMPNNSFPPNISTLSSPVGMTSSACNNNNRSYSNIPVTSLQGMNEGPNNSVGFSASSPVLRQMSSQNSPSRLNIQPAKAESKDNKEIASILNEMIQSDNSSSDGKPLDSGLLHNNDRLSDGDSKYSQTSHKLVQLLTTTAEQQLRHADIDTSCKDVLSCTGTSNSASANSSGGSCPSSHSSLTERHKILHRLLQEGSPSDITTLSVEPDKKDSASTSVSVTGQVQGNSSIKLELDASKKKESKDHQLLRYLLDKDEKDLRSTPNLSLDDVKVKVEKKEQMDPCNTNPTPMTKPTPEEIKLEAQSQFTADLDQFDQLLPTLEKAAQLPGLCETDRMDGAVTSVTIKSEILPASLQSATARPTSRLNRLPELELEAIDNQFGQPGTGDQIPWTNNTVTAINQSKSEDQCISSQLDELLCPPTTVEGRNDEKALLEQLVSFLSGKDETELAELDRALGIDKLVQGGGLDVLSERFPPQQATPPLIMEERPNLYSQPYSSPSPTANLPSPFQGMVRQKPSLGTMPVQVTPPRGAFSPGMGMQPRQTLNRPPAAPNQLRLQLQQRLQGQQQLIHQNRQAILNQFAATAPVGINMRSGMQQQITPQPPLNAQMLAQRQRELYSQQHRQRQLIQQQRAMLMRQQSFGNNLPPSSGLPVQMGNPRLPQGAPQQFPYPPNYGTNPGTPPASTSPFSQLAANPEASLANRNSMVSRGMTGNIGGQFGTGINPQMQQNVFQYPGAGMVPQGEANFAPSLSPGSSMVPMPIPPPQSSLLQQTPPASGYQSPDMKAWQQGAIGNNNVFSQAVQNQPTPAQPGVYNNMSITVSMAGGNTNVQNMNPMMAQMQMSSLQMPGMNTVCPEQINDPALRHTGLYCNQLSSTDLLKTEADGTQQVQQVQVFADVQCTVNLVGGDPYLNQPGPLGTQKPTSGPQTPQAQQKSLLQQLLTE
# The list shows a part of the results, in another mix than the full data. The source made the active and inactive calls. Rule as the data show it: active = activation above about 19%; inactive = the rest.
# Biological target: Peroxisome proliferator-activated receptor gamma (Homo sapiens) (UniProt P37231)
# Experiment: enhancers of SRC-1 binding to PPARgamma – biochemical, primary screen (AID 631);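 also: 0% = DMSO and 100% = reference agonist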
# Settings: PPARgamma-SRC-1 coactivator recruitment biochemical assay; at 8 µM; stronger effect = higher value
row,SMILES,activation
1,Cc1cccc(C)c1OP(C)(N)=O (stereo not given),inactive: -3%
2,CC(C)(C)c1ccc(OP(C)(=O)Nc2ccc(SC(F)(F)F)cc2)cc1 (stereo not given),inactive: 1.1%
3,O=[N+]([O-])c1ccc2c(c1)C=Nc1ccccc1O2,inactive: -2.7%
4,CCOC(=O)c1ccc(NP(C)(=O)Oc2ccccc2)cc1 (stereo not given),inactive: -3%
5,Cc1ccc(NP(C)(=O)Oc2ccccc2)c(C)c1 (stereo not given),inactive: -2.5%
6,COc1ccccc1OP(C)(=O)Nc1ccc(C)cc1 (stereo not given),inactive: 3.2%
7,COc1ccc(OP(C)(=O)Nc2cccc(F)c2)cc1 (stereo not given),inactive: 2.4%
8,COc1ccccc1OP(C)(=O)Nc1cc(Cl)ccc1C (stereo not given),inactive: 3.7%
9,Cc1cc(C)cc(OP(C)(N)=O)c1 (stereo not given),inactive: 6.4%
10,CCN(CC)CCCOC(=O)C(O)(c1ccccc1)c1ccccc1,inactive: 0.2%
11,CP(=O)(Oc1ccccc1)OC(c1ccccc1)C(F)(F)F (stereo not given),inactive: 8.9%
12,Cc1cccc(C)c1OP(C)(=O)Nc1ccc(SC(F)(F)F)cc1 (stereo not given),inactive: 2.3%
13,Cc1cc(C)cc(OP(C)(=O)Nc2ccc(SC(F)(F)F)cc2)c1 (stereo not given),inactive: 4.5%
14,CP(=O)(NC(=O)Nc1ccccc1)Oc1ccccc1 (stereo not given),inactive: 0.3%
15,CCOP(C)(=S)SCC(=O)NC(C)C(=O)O (stereo not given),inactive: 9%
16,CCOC(=O)c1ccc(NP(C)(=O)Oc2ccc(OC)cc2)cc1 (stereo not given),inactive: 2.2%
17,CP(=O)(Nc1ccccn1)Oc1ccc(Cl)cc1 (stereo not given),inactive: 3.9%
18,CP(=S)(Nn1cnnc1)Oc1ccccc1 (stereo not given),inactive: 5.4%
19,COc1ccccc1OP(C)(=O)Nc1ccccc1 (stereo not given),inactive: -4.9%
20,CP(=O)(Nc1ccccc1Br)Oc1ccccc1 (stereo not given),inactive: 11.7%
21,CN1CCCCC1COC(=O)C1(O)c2ccccc2CCc2ccccc21 (stereo not given),inactive: 3.1%
22,COc1ccccc1OP(C)(=O)Nc1c(C)cccc1C (stereo not given),inactive: 5.8%
23,CCCOc1ccc(NP(C)(=O)Oc2ccc(Cl)cc2)cc1 (stereo not given),inactive: -6.5%
24,CP(=O)(Nc1ccc(SC(F)(F)F)cc1)Oc1ccccc1 (stereo not given),inactive: -1%

row,SMILES,activation
1,O=[N+]([O-])c1cc([N+](=O)[O-])c(-n2nnc3ccccc32)c([N+](=O)[O-])c1,inactive: -1.3%
2,Cc1nc2ccc3ccccc3c2s1.O=[N+]([O-])c1cc([N+](=O)[O-])c(O)c([N+](=O)[O-])c1,inactive: 6.6%
3,Cc1cc(C)cc(OP(C)(=O)Nc2ccc(C)cc2C)c1 (stereo not given),inactive: 0.9%
4,CCOC(=O)c1ccc(NP(C)(=O)Oc2cc(C)cc(C)c2)cc1 (stereo not given),inactive: -5.7%
5,Cc1cc(C)cc(OP(C)(=O)Nc2ccccn2)c1 (stereo not given),inactive: 3%
6,CP(=O)(Nc1cccc(Br)c1)Oc1ccccc1 (stereo not given),inactive: -2.5%
7,Cc1ccc(C)c(NP(C)(=O)Oc2ccccc2)c1 (stereo not given),inactive: 2%
8,CC1=NCCc2c1[nH]c1ccccc21.O=[N+]([O-])c1cc([N+](=O)[O-])c(O)c([N+](=O)[O-])c1,inactive: 7.6%
9,COc1ccc(OP(C)(=O)Nc2ccc(SC(F)(F)F)cc2)cc1 (stereo not given),inactive: -3.9%
10,CCOC(=O)c1ccc(NP(C)(=O)Oc2ccc(F)cc2)cc1 (stereo not given),inactive: 2%
11,CCN(CC)CCCOC(=O)C(O)(c1ccccc1)C1CCCCC1 (stereo not given),inactive: -5.7%
12,CP(=O)(Nc1ccccc1)Oc1ccc(F)cc1 (stereo not given),inactive: 1.7%
13,CC(C)c1ccc(OP(C)(=O)Nc2ccc(SC(F)(F)F)cc2)cc1 (stereo not given),inactive: 0.5%
14,CP(=O)(Nc1ccccc1F)Oc1ccccc1 (stereo not given),inactive: 9.5%
15,O=C(OCCN1CCN(CCOCc2ccccc2)CC1)C(O)(c1ccccc1)c1ccccc1,inactive: -10.9%
16,CCOP(C)(=S)SCC(=O)NC(C)(CC)C(=O)O (stereo not given),inactive: 2.4%
17,CP(=O)(Nc1ccc2c(c1)OCCO2)Oc1ccccc1 (stereo not given),inactive: -4.1%
18,Cc1ccccc1NP(C)(=O)Nc1ccccc1C,inactive: 3.3%
19,COc1ccc(OP(C)(=O)Nc2cccc(Br)c2)cc1 (stereo not given),inactive: 2.9%
20,COc1ccc(NP(C)(=O)Oc2ccccc2OC)cc1 (stereo not given),inactive: 8.1%
21,CN(C)CCOC(=O)C(O)(c1ccccc1)C1CCCCC1 (stereo not given),inactive: -0.4%
22,O=[N+]([O-])c1cc([N+](=O)[O-])c(NCC2CCS(=O)(=O)C2)c([N+](=O)[O-])c1 (stereo not given),inactive: 2.5%
23,CP(=O)(OC12CC3CC(CC(C3)C1)C2)OC12CC3CC(CC(C3)C1)C2,inactive: -0.8%
24,CCOC(=O)c1ccc(NP(C)(=O)Oc2ccc(Cl)cc2)cc1 (stereo not given),inactive: 0.2%

row,SMILES,activation
1,COc1ccc(OP(C)(=O)Nc2ccc(Br)cc2)cc1 (stereo not given),inactive: -2.6%
2,CCN(CC)CC(O)COC(=O)C(O)(c1ccccc1)C1CCCCC1 (stereo not given),inactive: 2.9%
3,CCc1ccc(OP(C)(=O)Nc2cccnc2)cc1 (stereo not given),inactive: -5.3%
4,CP(=O)(Oc1ccccc1)N1CCOC1=O (stereo not given),inactive: -7%
5,COc1ccccc1OP(C)(=O)Nc1c(C)n(C)n(-c2ccccc2)c1=O (stereo not given),inactive: 4.7%
6,CP(=O)(Nc1ccc(Cl)cc1)Oc1ccc(F)cc1 (stereo not given),inactive: 5.3%
7,COc1ccccc1OP(C)(=O)Nc1ccccc1Br (stereo not given),inactive: 0.3%
8,CC(C)(C)c1ccc(OP(C)(=O)O)cc1,inactive: 3.9%
9,CN(C)C(=O)c1c([N+](=O)[O-])cc([N+](=O)[O-])cc1[N+](=O)[O-],inactive: 6%
10,CN(C)CCOC(=O)C(O)(c1ccccc1)C1CCCC1 (stereo not given),inactive: 3.9%
11,COc1ccc(OP(C)(=O)Nc2ccccn2)cc1 (stereo not given),inactive: 4.9%
12,Cc1c(NP(C)(=O)Oc2ccc(C(C)C)cc2)c(=O)n(-c2ccccc2)n1C (stereo not given),inactive: -0.9%
13,O=[N+]([O-])c1cc([N+](=O)[O-])c(Nc2ccccn2)c([N+](=O)[O-])c1,inactive: 8%
14,CCc1ccc(OP(C)(=O)O)cc1,inactive: -4.5%
15,COc1ccccc1OP(C)(=O)Nc1ccc(C)cc1C (stereo not given),inactive: 1.4%
16,CP(=O)(Nc1ccccn1)Oc1ccccc1 (stereo not given),inactive: 2.1%
17,Cc1cc(C)cc(OP(C)(=O)Nc2cccc(C(F)(F)F)c2)c1 (stereo not given),inactive: 12.2%
18,COc1ccc(OP(C)(=O)Nc2ccccc2Br)cc1 (stereo not given),inactive: 4.4%
19,COc1ccccc1OP(C)(=O)Nc1ccc(C)c(C)c1 (stereo not given),inactive: 5.4%
20,Cc1nc2ccc3ccccc3c2o1.O=[N+]([O-])c1cc([N+](=O)[O-])c(O)c([N+](=O)[O-])c1,inactive: -5%
21,CP(=O)(Nc1ccc(Cl)cc1Cl)Oc1ccccc1 (stereo not given),inactive: 3.7%
22,CP(=O)(OCCOc1ccccc1)OCCOc1ccccc1,inactive: -4.5%
